The values below come from US20190125867A1, “THERAPEUTIC AGENT FOR SOLID CANCER” (IDAC THERANOSTICS, INC., priority 2014, published 2019).

For series [1], the system named is mouse melanoma cell line B16F10. Description: Tumor volume in C57BL/6 mice transplanted with melanoma cell line B16F10. In kind it is in vivo. The note with it: Example 7 (small molecule anticancer agents); Day 15; anti-CD4 0.2 mg Day 5, 9; OXA 10, GEM 20, CPA 10 mg/kg Day 5, 9, 12, 16; FIG. 23. On the procedure: On Day −2 (two days before the cancer cell transplantation), Day 0 (=day of cancer cell transplantation), Day 3, Day 5, Day 9, or Day 12, 0.2 mg of an anti-CD4 antibody (GK1.5; an antibody known to be capable of causing depletion of CD4+ cells in the mouse body by the CDC activity; manufactured by BioXcell) was intraperitoneally administered at one time. The solid tumor diameter was measured on Day 14, and the tumor volume was calculated by short diameter×short diameter×long diameter×π/6.
On Day 5, 3.125 μg, 12.5 μg, 50 μg, or 200 μg of the anti-CD4 antibody was administered (negative control group: no antibody was administered).
The solid tumor diameter in each mouse was measured, and the tumor volume was calculated (short diameter×short diameter×long diameter×π/6).
Thereafter, antibody administration was carried out as follows (Day 0=day of cancer cell transplantation).
The tumor volume was calculated (short diameter×short diameter×long diameter×π/6) from the solid tumor diameter measured on Day 18.
The tumor volume was calculated (short diameter×short diameter×long diameter×π/6) from the solid tumor diameter measured on Day 15.
The tumor volume was calculated (short diameter×short diameter×long diameter×π/6) from the solid tumor diameter measured on Day 16.

For series [2] the following is noted: 10 mg/kg twice a week for two weeks.

Regarding `O=C1[O][Pt]2([NH][C@@H]3CCCC[C@H]3[NH]2)[O]C1=O` [OXA, Oxaliplatin], the “growth of solid tumor relative to control group” value in series [1] is 46%. For the same compound, the “side effect observed in mice” value in series [2] is “weight loss was observed”.
